Columns and labels:
human MC3R = human MC3R (Homo sapiens, UniProt P41968); assay: Melanocortin receptor whole cell cAMP accumulation assay, MC3 (Table 2, MC3 Potency, printed as Ki); format: cell-based
MC1/MC4 = settings: ratio MC1/MC4;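 also: ratio of EC50 values obtained at MC1 versus MC4 receptors, with MC1 potency measured by luciferase reporter activity in stably transfected cells expressing human MC1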
human MC4R = human MC4R (Homo sapiens, UniProt P32245); assay: cell-based

By UniProt entry, the sequences of proteins in these tests, tags left out. Where a name states a change or a piece, a line headed by the entry shows the natural chain unless it says otherwise.
UniProt P41968: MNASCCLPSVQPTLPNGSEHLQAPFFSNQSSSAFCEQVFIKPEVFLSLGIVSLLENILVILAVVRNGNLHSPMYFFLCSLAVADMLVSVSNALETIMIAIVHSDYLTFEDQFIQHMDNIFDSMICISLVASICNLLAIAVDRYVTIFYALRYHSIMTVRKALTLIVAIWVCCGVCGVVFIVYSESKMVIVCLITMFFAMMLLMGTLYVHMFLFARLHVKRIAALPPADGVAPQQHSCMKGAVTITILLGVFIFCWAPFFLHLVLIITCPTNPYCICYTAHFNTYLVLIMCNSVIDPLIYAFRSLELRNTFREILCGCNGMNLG
UniProt P32245, whole entry: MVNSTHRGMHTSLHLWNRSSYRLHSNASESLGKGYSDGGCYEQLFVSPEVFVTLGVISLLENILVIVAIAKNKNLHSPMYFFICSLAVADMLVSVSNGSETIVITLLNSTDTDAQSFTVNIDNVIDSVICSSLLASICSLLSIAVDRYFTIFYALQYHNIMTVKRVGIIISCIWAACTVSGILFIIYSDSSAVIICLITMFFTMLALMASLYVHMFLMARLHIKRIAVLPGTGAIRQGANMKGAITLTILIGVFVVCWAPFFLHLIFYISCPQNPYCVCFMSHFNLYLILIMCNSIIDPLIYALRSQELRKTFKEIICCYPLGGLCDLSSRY

Work on `N=C(N)NCCC[C@@H]1NC(=O)[C@@H](Cc2ccccc2)NC(=O)[C@H](Cc2c[nH]cn2)NC(=O)[C@H](CCC(=O)O)NC(=O)[C@@H](N)CSSC[C@@H](C(N)=O)NC(=O)[C@H](Cc2c[nH]c3ccccc23)NC1=O` [Compound 29, cyclo[Cys-Glu-His-D-Phe-Arg-Trp-Cys]-NH2] yielded a Ki (human MC3R) of at least 500 nM.

For “Ac-cyclo[Cys-His-(4-F-D-Phe)-Arg-Trp-hCys]-NH2 [Compound 184]”, the MC1/MC4 selectivity (MC1/MC4) was 97.44.

In the case of `N=C(N)NCCC[C@@H]1NC(=O)[C@@H](Cc2ccccc2)NC(=O)[C@H](Cc2c[nH]cn2)NC(=O)[C@@H](NC(=O)[C@@H](N)CCCNC(=N)N)CCSSCC[C@@H](C(N)=O)NC(=O)[C@H](Cc2c[nH]c3ccccc23)NC1=O` [Compound 194, Arg-cyclo[hCys-His-D-Phe-Arg-Trp-hCys]-NH2], the Ki (human MC3R) is reported as 41.9 nM.

“Ac-Tyr-Arg-cyclo[Cys-His-His-D-Phe-Arg-Trp-Cys]-NH2 [Compound 13]” gave an MC1/MC4 selectivity (MC1/MC4) of 10.65.

“Ac-cyclo[hCys-His-Phe-Arg-Trp-Cys]-NH2 [Compound 136]” gave an MC1/MC4 selectivity (MC1/MC4) of 7.01.

`N=C(N)NCCC[C@@H]1NC(=O)[C@@H](Cc2ccccc2)NC(=O)[C@H](Cc2c[nH]cn2)NC(=O)[C@@H](N)CCSSC[C@@H](C(N)=O)NC(=O)[C@H](Cc2c[nH]c3ccccc23)NC1=O` [Compound 132, cyclo[hCys-His-D-Phe-Arg-Trp-Cys]-NH2] showed a Ki (human MC4R) of 0.34 nM.

Compound `N=C(N)NCCC[C@@H]1NC(=O)[C@@H](Cc2ccc(F)cc2)NC(=O)[C@H](Cc2c[nH]cn2)NC(=O)[C@@H](N)CSSCC[C@@H](C(N)=O)NC(=O)[C@H](Cc2c[nH]c3ccccc23)NC1=O` [Compound 181, cyclo[Cys-His-(4-F-D-Phe)-Arg-Trp-hCys]-NH2] has a Ki (human MC3R) of at least 500 nM.

With “Ac-Arg-cyclo[hCys-His-D-Phe-Arg-Trp-hCys]-NH2 [Compound 195]” the MC1/MC4 selectivity (MC1/MC4) was 32.56.
